Data taken from patent US6340696B1, “Viral treatment” (The Procter & Gamble Company, priority 1999, dated 2002).

Assay: Oral LD50 in mice

(5-Phenyl-1,2,4-thiadiazol)-3-yl thiourea [Compound]
oral LD50: greater than 6000 mg/kg
